This note sets out measurements from ChEMBL document CHEMBL4425113, “Chromenopyrazole, a Versatile Cannabinoid Scaffold with in Vivo Activity in a Model of Multiple Sclerosis” (J Med Chem, 2016).

Protein sequences, listed by entry. Tags and fused reporters are not part of them.
UniProt P34972, whole entry: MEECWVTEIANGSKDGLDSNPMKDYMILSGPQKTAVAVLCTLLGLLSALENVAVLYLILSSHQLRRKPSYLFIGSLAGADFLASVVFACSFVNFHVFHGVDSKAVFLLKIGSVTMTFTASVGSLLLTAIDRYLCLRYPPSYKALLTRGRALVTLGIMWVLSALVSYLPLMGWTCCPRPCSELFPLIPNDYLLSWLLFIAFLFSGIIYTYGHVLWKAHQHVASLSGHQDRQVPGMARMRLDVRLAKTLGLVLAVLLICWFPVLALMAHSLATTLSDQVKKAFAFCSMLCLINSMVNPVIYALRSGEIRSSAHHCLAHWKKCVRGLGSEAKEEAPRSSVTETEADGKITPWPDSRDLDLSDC

Molecules are shown by their SMILES.

In assay [1] the target is Cannabinoid receptor 2 (Homo sapiens, UniProt P34972). Description: Agonist activity at human CB2 receptor expressed in HEK293 cell membranes assessed as induction of [35S]-GTPgammaS binding after 60 mins by liquid scintillation spectrometric method. It counts as functional. In general terms: GTPγS resists hydrolysis and so accumulates on activated G proteins.
Assay [2] deals with T1, Cannabinoid receptor 2 (Rattus norvegicus, UniProt Q9QZN9).
T1 sequence (Q9QZN9 whole entry): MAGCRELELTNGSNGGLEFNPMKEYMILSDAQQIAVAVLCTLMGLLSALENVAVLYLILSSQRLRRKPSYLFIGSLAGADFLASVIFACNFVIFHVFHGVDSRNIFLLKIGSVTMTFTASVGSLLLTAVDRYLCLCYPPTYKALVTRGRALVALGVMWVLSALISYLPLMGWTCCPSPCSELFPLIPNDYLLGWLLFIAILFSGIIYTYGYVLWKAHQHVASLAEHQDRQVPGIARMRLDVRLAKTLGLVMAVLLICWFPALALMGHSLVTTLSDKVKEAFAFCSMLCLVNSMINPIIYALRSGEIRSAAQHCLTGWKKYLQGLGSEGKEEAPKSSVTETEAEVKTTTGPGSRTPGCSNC

Usually EC50 stands for the concentration needed to bring the measured effect to its halfway point. In general, Ki refers to a dissociation constant, usually derived from enzyme kinetics or from competition with a known ligand. Higher therefore signals weaker binding.

Turning to `CCCCCCC(C)(C)c1cc(OC)c([C@H]2C=C(CO)[C@@H]3C[C@H]2C3(C)C)c(OC)c1`, on Cannabinoid receptor 2 [1], the EC50 stood at 64.5 nM. This molecule had a Ki at Cannabinoid receptor 2 [2] of 22.7 nM.
